Results as given in US20150140123A1, “Protein expression analyses for identifying genotoxic compounds” (Merck Patent GmbH, priority 2012, published 2015).
Where a name gives a salt, the structure may show the parent alone.

System: HepG2 cells
Conditions: human
Description: HepG2 cells (Order No. HB-8065, Lot. 58483209, ATCC, Manassas, USA) were cultured in DMEM/F12 with L-Glutamine and 15 mM Hepes supplemented with 10% (v/v) FBS, 1% (v/v) penicillin (10 kU/ml)/streptomycin (10 mg/ml) solution, 0.1% (v/v) gentamicin (50 mg/ml), and 1 mM sodium pyruvate at 37° C. and 5% CO2 in culture flasks. Depending on the experiment, an appropriate number of cells were seeded onto plates after detaching of the cells using trypsin and cells were cultured at 37° C. and 5% CO2 for 24 h prior to treatment. All experiments were performed three times with cells of passages 4-20.
Cells were seeded onto black Poly-D-Lysin coated 96-well-plates (BD Biocoat, Franklin Lakes, USA) (0.02×10^6 cells/well) and left 24 h for adherence and then treated with test compounds at a maximum concentration of 1 mM which is recommended by the ICH S2(R1) guideline (EMA, 2011). For each compound, nine concentrations were tested with 2-fold serial dilutions. DMSO 1% (v/v) served as vehicle control for the experiments. The treatment procedure was different for direct-genotoxic and pro-genotoxic compounds. The treatment for direct genotoxic compounds was ongoing and was repeated daily over 48 h. Pro-genotoxic compounds were incubated for 6 h together with metabolic activation system (to limit the cytotoxic effect of the S9-mixture). After this period, cells were washed with cell media followed by 18-repeated daily over 48 h. The metabolic activation system used consisted of the following components and concentrations: 8 mM MgCl2, 32.8 mM KCl, 12 mM NADPH, 124 mM phosphate buffer and 2500 pmol/ml cytochrome P450 (CYP) content in the pre-mixture corresponding to 2.4 mM MgCl2, 9.8 mM KCl, 3.6 mM NADPH, 37.2 mM phosphate buffer, and 750 pmol/ml CYP as final concentrations after dilution 1:3.33 with cell culture media.
After treatment, cells were rinsed with PBS (Gibco Invitrogen, Karlsruhe, Germany), and then stained with 10 μM CellTracker Green 5-Chloromethylfluorescein Diacetate (CMFDA) (Invitrogen, Karlsruhe, Germany) in cell culture media for 30 min. CMFDA is per se non-fluorescent and is hydrolyzed by esterase in viable cells to a fluorescent-dye. The reaction with thiol groups leads to a cell-impermeable fluorescent-dye-adduct. The esterase activity can be used as an indicator for viability of cells (Papadopoulos et al., 1994, J Immunol Methods 177, 101-11). Afterwards, cells were washed with PBS and fixed with 3.7% Formaldehyde (Sigma-Aldrich, Taufkirchen, Germany) in PBS for 20 min. After that, cells were washed with PBS and blocked and permeabilized with 2% donkey serum (Millipore, Schwalbach, Germany) and 0.25% Triton X-100 (Sigma-Aldrich, Taufkirchen, Germany) in PBS for 30 min. Primary antibodies were diluted in Blocking/Permeabilization solution to final concentrations of 4 μg/ml anti-p-Chk1 (Ser345) goat polyclonal antibody IgG (santa cruz, Santa Cruz, USA), 4 μg/ml anti-p-ATM (Ser1981) mouse monoclonal antibody IgG1K (Millipore, Schwalbach, Germany) and added to the cells. After incubation for 16-18 h, cells were washed with 0.05% Tween 20 (Calbiochem, Darmstadt, Germany) in PBS, and the secondary antibody/16 μM Hoechst staining solution Blocking/Permeabilization solution was added. Secondary antibodies were diluted 1:400 (Alexa Fluor 555 donkey anti-goat, Alexa Fluor 647 donkey anti-mouse, Invitrogen, Karlsruhe, Germany). After an incubation of 1 h, followed by two additional washing steps with 0.05% Tween 20, cells were washed with PBS and finally PBS was added and cells were measured.
Image acquisition was performed on the ArrayScan VTI HCS Reader (Cellomics, Pittsburgh, USA) using a 20× objective. To detect enough cells, 50 images starting at the middle of each well were gathered.
• Channel 1: selected cell count per valid field • Channel 2: CMFDA cytoplasm average intensity • Channel 3: p-Chk1 (Ser345) nucleus average intensity • Channel 4: p-ATM (Ser1981) nucleus average intensity

With `[H]/N=C(/N)N/C(=N/[H])NCCc1ccccc1` [Phenformin HCl] the “CMFDA +S9 highest conc. <50% cytotox. over control” value was 1000 µM, the “CMFDA −S9 highest conc. <50% cytotox. over control” value was 1000 µM and the “SCC +S9 highest conc. <50% cytotox. over control” value was 1000 µM. The “SCC −S9 highest conc. <50% cytotox. over control” value was 500 µM.
`O=[N+]([O-])c1ccc(O)cc1` [p-Nitrophenol] was tested, and the “CMFDA +S9 highest conc. <50% cytotox. over control” value was 1000 µM, the “CMFDA −S9 highest conc. <50% cytotox. over control” value was 500 µM and the “SCC +S9 highest conc. <50% cytotox. over control” value was 1000 µM. For the same compound, the “SCC −S9 highest conc. <50% cytotox. over control” value was 500 µM.
